Measured values published in PMC9502993 (Pharmaceuticals, 2022).

System: Salmonella typhimurium strains TA98 and TA100
Assay: Ames MPF 98/100 test with or without liver S9 homogenate
Details: TA98 and TA100, with and without S9, all conditions

`COC(=O)[C@H]1[C@@H](O)[C@@]2(O)c3c(OC)cc(O[C@@H]4O[C@@H]([C@H](O)CO)CO[C@H]4OC)cc3O[C@@]2(c2ccc(OC)cc2)[C@@H]1c1ccccc1` [silvestrol] was tested, and the “mutagenic potential (Ames test)” value was “negative”.
